Kd, IC50 and Selectivity data for 10 molecules are collected here from patent publication US20250152585A1, “PHARMACEUTICAL COMPOUND” (Duke Street Bio Limited, priority 2022, published 2025).

Protein sequences, listed by entry. Tags and fused reporters are not part of them.
UniProt Q9UGN5, whole entry: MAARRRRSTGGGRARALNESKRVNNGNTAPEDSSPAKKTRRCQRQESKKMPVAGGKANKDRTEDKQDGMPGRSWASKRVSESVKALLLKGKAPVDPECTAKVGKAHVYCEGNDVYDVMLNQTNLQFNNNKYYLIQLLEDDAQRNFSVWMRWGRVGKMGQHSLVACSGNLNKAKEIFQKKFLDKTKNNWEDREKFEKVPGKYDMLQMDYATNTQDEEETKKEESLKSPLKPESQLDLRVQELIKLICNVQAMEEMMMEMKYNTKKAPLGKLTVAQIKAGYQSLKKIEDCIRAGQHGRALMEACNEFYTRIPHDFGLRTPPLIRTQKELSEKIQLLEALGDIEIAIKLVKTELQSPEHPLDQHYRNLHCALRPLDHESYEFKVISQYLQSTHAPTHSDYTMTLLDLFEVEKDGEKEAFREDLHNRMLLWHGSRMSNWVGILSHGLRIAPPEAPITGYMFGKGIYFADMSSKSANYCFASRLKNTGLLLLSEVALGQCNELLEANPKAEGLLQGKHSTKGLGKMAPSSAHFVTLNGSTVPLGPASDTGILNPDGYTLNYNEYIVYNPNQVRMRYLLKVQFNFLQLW
UniProt P09874, whole entry: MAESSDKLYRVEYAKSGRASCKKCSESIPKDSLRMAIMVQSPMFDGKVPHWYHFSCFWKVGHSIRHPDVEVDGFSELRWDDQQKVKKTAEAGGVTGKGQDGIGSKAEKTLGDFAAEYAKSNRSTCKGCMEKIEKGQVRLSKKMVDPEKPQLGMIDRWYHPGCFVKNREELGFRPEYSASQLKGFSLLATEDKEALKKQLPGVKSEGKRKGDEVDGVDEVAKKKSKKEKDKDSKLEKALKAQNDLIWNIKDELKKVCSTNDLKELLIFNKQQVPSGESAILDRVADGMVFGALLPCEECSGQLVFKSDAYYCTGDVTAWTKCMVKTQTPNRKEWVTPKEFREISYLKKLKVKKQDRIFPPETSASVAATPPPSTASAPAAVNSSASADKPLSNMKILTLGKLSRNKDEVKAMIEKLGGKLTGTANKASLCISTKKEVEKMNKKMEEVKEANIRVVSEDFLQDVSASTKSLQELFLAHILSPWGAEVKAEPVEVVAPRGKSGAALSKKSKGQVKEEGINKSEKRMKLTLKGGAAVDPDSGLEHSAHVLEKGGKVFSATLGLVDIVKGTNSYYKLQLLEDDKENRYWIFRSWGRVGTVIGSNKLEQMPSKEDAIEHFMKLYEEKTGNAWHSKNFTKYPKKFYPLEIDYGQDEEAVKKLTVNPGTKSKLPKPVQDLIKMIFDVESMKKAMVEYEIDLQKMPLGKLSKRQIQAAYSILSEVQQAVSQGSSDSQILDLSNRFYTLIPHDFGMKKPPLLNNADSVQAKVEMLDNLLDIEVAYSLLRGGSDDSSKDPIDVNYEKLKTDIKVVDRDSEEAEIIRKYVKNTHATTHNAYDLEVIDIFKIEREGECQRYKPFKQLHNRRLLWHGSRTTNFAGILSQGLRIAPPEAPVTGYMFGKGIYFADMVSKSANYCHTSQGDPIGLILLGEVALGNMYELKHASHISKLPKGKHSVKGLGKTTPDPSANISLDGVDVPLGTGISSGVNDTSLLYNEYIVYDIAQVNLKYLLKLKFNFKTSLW

Like-named read-outs stand apart in the source and are kept apart here. A value given as a limit tells only on which side of the number the result lay.

The target of one assay is PARP2 (Homo sapiens, UniProt Q9UGN5). Briefly: NanoBRET cellular target occupancy assay, PARP2. The following applies: read-out: PARP2 NanoBRET; HEK293 cells transiently transfected with PARP2-NanoLuc fusion; tracer 2 nM; 2 hours at 37° C.; Kd by Cheng-Prussoff. The source says:
NanoBRET Cellular Target Occupancy Assay

The target of assay [1] is T1, full length N-terminally FLAG-tagged PARP1 (Homo sapiens, UniProt P09874). In words: PARP1 biochemical DELFIA assay (auto-PARylation). Conditions: read-out: PARP1 DELFIA.
The next assay addresses PARP1 (Homo sapiens, UniProt P09874). Briefly: NanoBRET cellular target occupancy assay, PARP1. Format: cell-based. Conditions: for Selectivity: NanoBRET, PARP1 over PARP2, Kd (PARP2)/Kd (PARP1); for Kd: read-out: PARP1 NanoBRET, HEK293 cells transiently transfected with PARP1-NanoLuc fusion, tracer 11 nM, 2 hours at 37° C., Kd by Cheng-Prussoff. In general terms: BRET reads energy transfer from a luciferase to a nearby fluorophore.

Assay [2] deals with T1, full length N-terminally FLAG-tagged PARP1. In words: PARP1 probe displacement HTRF assay. The following applies: for Selectivity: PARP1 over PARP2, ratio Kd (PARP2)/Kd (PARP1); for Kd: read-out: PARP1 HTRF, binned Kd.
The target of assay [3] is N-terminally FLAG-tagged PARP2 (amino acids 1-583) (Homo sapiens, UniProt Q9UGN5). Briefly: PARP2 probe displacement HTRF assay. The following applies: read-out: PARP2 HTRF, binned Kd. The procedure: This assay was performed under identical conditions as for PARP1, except that N-terminally FLAG-tagged PARP2 (amino acids 1-583) was used instead of PARP1, and PARP1/2 binding probe was used at 10-fold probe Kd=540 nM. Data analysis was performed identical as for PARP1.

Where [4] appears, read: binned IC50, biochemical auto-PARylation assay.
Where [5] appears, read: binned IC50, PARP1 biochemical DELFIA assay.

As for `N#Cc1ccc(N2CCC(N3CCC(c4cc5cccc(F)c5c(=O)[nH]4)C3)CC2)c(F)c1` (single isomer, unassigned) [Compound 356b], the Kd was 1000 to 10000 nM at PARP2, less than 10 nM on PARP1, less than 10 nM in assay [2] (probe displacement HTRF) and 100 to 1000 nM in assay [3] (probe displacement HTRF). The IC50 in assay [1] (setting [4]) is less than 10 nM. In addition, the Selectivity result (at PARP1; in assay [2] (probe displacement HTRF)) was “+++ (+++ indicate a value of at least 100)” throughout.

For `CNC(=O)c1ccc(N2CCC(N3CCC(c4cc5c(F)cc(F)cc5c(=O)[nH]4)C3)CC2)cn1` (single isomer, unassigned) [Compound 186a], the Kd at PARP2 is 10 to 100 nM; on PARP1, less than 10 nM; in assay [2] (PARP1 probe displacement HTRF), less than 10 nM; in assay [3] (PARP2 probe displacement HTRF), 10 to 100 nM. For the same molecule, the IC50 in assay [1] (setting [5]) is less than 10 nM. The values for the Selectivity entry (on PARP1; in assay [2] (probe displacement HTRF)) were “+++ (+++ indicate a value of at least 100)” and “+ (+ indicates a value of 10 to less than 50)”, respectively.

Take `O=C(NC1CC1)c1ccc(N2CCC(N3CCC(c4cc5cccc(F)c5c(=O)[nH]4)C3)CC2)c(F)n1` (single isomer, unassigned) [350b]: the Kd on PARP2 was 10 to 100 nM; at PARP1, less than 10 nM; in assay [2] (probe displacement HTRF), less than 10 nM; in assay [3] (probe displacement HTRF) it was 10 to 100 nM. For the same molecule, the IC50 in assay [1] (setting [4]) is less than 10 nM. Further, the Selectivity entry at PARP1 is “+++ (+++ indicate a value of at least 100)”; in assay [2] (probe displacement HTRF), “++ (++ indicates a value of 50 to less than 100)”.

With `CCc1ccc(C2CCN(C3CCN(c4ccc(C(=O)NCC(F)(F)F)nc4F)CC3)C2)[nH]c1=O` (single isomer, unassigned) [Compound 285b], the Kd on PARP2 is 100 to 1000 nM; at PARP1, less than 10 nM; in assay [2] (probe displacement HTRF), less than 10 nM; in assay [3] (probe displacement HTRF) it was 100 to 1000 nM. Further, the IC50 in assay [1] (setting [4]) is less than 10 nM. The Selectivity entry (on PARP1; in assay [2] (probe displacement HTRF)) was “+++ (+++ indicate a value of at least 100)” each time.

Turning to `O=C(NCC(F)F)c1ccc(N2CCC(N3CCC(c4cc5cccc(F)c5c(=O)[nH]4)C3)CC2)cn1` (single isomer, unassigned), the Kd on PARP2 is 10 to 100 nM; at PARP1, less than 10 nM; in assay [2] (probe displacement HTRF), less than 10 nM; in assay [3] (probe displacement HTRF), 10 to 100 nM. Moreover, the IC50 in assay [1] (setting [4]) is less than 10 nM. Further, the results for the Selectivity entry (at PARP1; in assay [2] (probe displacement HTRF)) were “++ (++ indicates a value of 50 to less than 100)” and “+ (+ indicates a value of 10 to less than 50)”, respectively.

Take `CNC(=O)c1cc(C)c(N2CCC(N3CCC(c4cc5cccc(F)c5c(=O)[nH]4)C3)CC2)cn1` (racemic): the Kd at PARP2 is 100 to 1000 nM; on PARP1, less than 10 nM; in assay [2] (PARP1 probe displacement HTRF), less than 10 nM; in assay [3] (PARP2 probe displacement HTRF), 10 to 100 nM. Besides, the IC50 in assay [1] (setting [5]) was less than 10 nM. Besides, the Selectivity entry (on PARP1; in assay [2] (probe displacement HTRF)) was “+ (+ indicates a value of 10 to less than 50)” throughout.

With `CNC(=O)c1ccc(N2CCC(N3CCC(c4nc5c(C)scc5c(=O)[nH]4)C3)CC2)cn1` (single isomer, unassigned) [Compound 232a], the IC50 in assay [1] (setting [4]) is less than 10 nM. Further, in assay [2] (probe displacement HTRF), the Selectivity result is reported as “+++ (+++ indicate a value of at least 100)” and the Kd was less than 10 nM. For the same molecule, in assay [3] (probe displacement HTRF), the Kd was 100 to 1000 nM.

Turning to `CNC(=O)c1ncc(N2CCC(N3CCC(c4cc5cccc(F)c5c(=O)[nH]4)C3)CC2)cc1F` (single isomer, unassigned) [352a], the Kd at PARP2 is 100 to 1000 nM; at PARP1 it was less than 10 nM; in assay [2] (probe displacement HTRF), less than 10 nM; in assay [3] (probe displacement HTRF) it was 10 to 100 nM. The IC50 in assay [1] (setting [4]) was less than 10 nM. For the same molecule, the Selectivity entry (on PARP1; in assay [2] (probe displacement HTRF)) was “+++ (+++ indicate a value of at least 100)” throughout.

Consider `CNC(=O)c1ccc(N2CCC(N3CCC(c4ccc(C)c(=O)[nH]4)C3)CC2)cn1` (stereo not shown), for which the IC50 in assay [1] (setting [4]) was less than 10 nM. For the same molecule, in assay [2] (probe displacement HTRF), the Selectivity entry is “+++ (+++ indicate a value of at least 100)” and the Kd was less than 10 nM. The Kd in assay [3] (probe displacement HTRF) lay in the range of 1000 to 10000 nM.

Take `CCc1cc(C)c(C2CCN(C3CCN(c4ccc(C(=O)NC)nc4)CC3)C2)[nH]c1=O` (stereo not shown): the IC50 in assay [1] (setting [4]) is less than 10 nM. Besides, in assay [2] (probe displacement HTRF), the Selectivity result is “+++ (+++ indicate a value of at least 100)” and the Kd is less than 10 nM. In addition, the Kd in assay [3] (probe displacement HTRF) lay within 100 to 1000 nM.
